This note sets out measurements from US5064826A, “Novel triazolo-pyrimidine derivatives” (priority 1989, dated 1991).

Molecules are shown by their SMILES.

The data set is described as follows: Analgesic activity in Writhing test (W.t.) after p.o. administration. As to conditions: TI = therapeutic index = LD50 (so in the source). Type of data set: in vivo. (In general: An intraperitoneal irritant provokes the stretching counted in writhing tests.)

Turning to `CC(=O)Nc1ccc(O)cc1` [paracetamol, p(acetylamino)-phenol, reference compound], the “TI (therapeutic index), W.t.” value amounted to 2.8.
